# AlphaSeq binding of Ab-95 light chain variants to a spike HR2 peptide

Data: MIT Lincoln Laboratory AlphaSeq set, Engelhart et al. 2022, doi:10.1038/s41597-022-01779-4, as distributed in FLAb.

Target: peptide PDVDLGDISGINAS, taken from heptad repeat 2 (HR2) of SARS-CoV-2 spike.

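Library AAYL52 holds single substitutions and randomly drawn double and triple substitutions in the CDRs. In AlphaSeq, yeast of one mating type display the scFv and yeast of the other type display the target. The frequency of each diploid, read from paired DNA barcodes, reflects how well the two displayed proteins bind. Read counts were normalised to the haploid input and turned into Kd by a linear fit to BCL2-family pairs of known affinity, for each replicate. Mating was done three times.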

Parent scFv Ab-95: VH joined to VL by three GGGGS repeats. Changes lie in the light chain CDRs alone.
VH: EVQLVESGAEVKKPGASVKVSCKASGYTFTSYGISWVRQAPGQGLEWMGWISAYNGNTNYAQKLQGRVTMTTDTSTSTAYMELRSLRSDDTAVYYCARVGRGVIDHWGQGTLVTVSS
VL: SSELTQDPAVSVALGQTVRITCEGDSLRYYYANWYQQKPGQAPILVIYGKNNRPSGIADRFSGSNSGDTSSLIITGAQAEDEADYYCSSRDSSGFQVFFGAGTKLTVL

Variants are written as CDR1, CDR2 and CDR3 of the light chain (limits as in the source). Parent: EGDSLRYYYAN, GKNNRPS, SSRDSSGFQVF. Every variant below is changed at K50 of the VL (sequential numbering). Values are apparent Kd, the geometric mean of the replicates that gave a signal; lower means stronger binding. "no signal" means that the variant was in the library but no mating with the target was seen in any replicate; the authors take this as a sign of poor binding, and no number exists. In this assay the parent's reference entry averaged 200 nM; its copy inside this library read 180 nM. Nonspecific signal, from three strains lacking the peptide, appeared in 28% of pairings of library AAYL52, centred on 8.2 µM (5% of these signals below 800 nM); values are not corrected for it.

The variant EGDSLRYYYAN / GRNNRCS / SSRDSVGFQVF gave 26 µM (3 of 3 replicates). The variant DGDSLRYYYAN / PYNNRPS / SSRDSSGFQVF showed 19 µM (2 of 3 replicates). For EGDSLRYYYAN / GANNRPS / SSRDDSGFRVF, the assay gave 5.3 µM (3 of 3 replicates). With EGDSLRYYYAN / CQNNRPR / SSRDSSGFQVF the result was 28 µM (2 of 3 replicates). The variant EGDSLRYYYAN / GWNNRPS / SSRESSGFQVY showed no signal (0 of 3 replicates).

For EGDSLRYYYAN / GINNRPS / MSRDSSGFQLF, the assay gave no signal (0 of 3 replicates). With EGDSLRKYYAN / GRNNRPS / SSRDSSGFQRF the result was 330 µM (1 of 3 replicates). The variant TGDSLRYYYAN / EVNNRPS / SSRDSSGFQVF showed 4.7 µM (1 of 3 replicates). The variant EGDSLRYYYAN / GNNNRPS / SSRDSSDFQVF showed 580 nM (3 of 3 replicates). The variant TGTSLRYYYAN / GTNNRPS / SSRDSSGFQVF gave 300 nM (3 of 3 replicates).

With EGDSLRYYYAN / GTNPRPH / SSRDSSGFQVF the result was 3.8 µM (2 of 3 replicates). The variant EGDSLRYYYAN / GVNNRPS / LSRDSSGFNVF gave 3.6 µM (3 of 3 replicates). With EGDVLRYYYAN / GLNNRPS / SWRDSSGFQVF the result was no signal (0 of 3 replicates). With EGDSLRYWVAN / GINNRPS / SSRDSSGFQVF the result was 7.9 µM (3 of 3 replicates). The variant EGDSLRYYNAN / GWNNNPS / SSRDSSGFQVF showed 220 nM (3 of 3 replicates).

With EGDSLRYYYAN / GCNNRPS / VSRDSSGFQVF the result was 3.3 µM (2 of 3 replicates). The variant EGDSLRYYYAN / GTNPRPN / SSRDSSGFQVF gave 16 µM (3 of 3 replicates). The variant EGDSLRYYYAN / GTNNWPS / SSLDSSGFQVF gave 4.4 µM (2 of 3 replicates). For EYDSLRYYYAN / GPMNRPS / SSRDSSGFQVF, the assay gave 8.6 µM (1 of 3 replicates). The variant EGDSCRYYYAN / GLNNRPS / SSRDSIGFQVF showed 3.9 µM (2 of 3 replicates).

For EGDSLRYYIAN / GTNNRPS / SSRDSSGFQVP, the assay gave 13 µM (3 of 3 replicates). For EGDSLRYYYAV / GGNNRPS / SSRDSSGFQVC, the assay gave 2.9 µM (1 of 3 replicates). The variant EGDSLRYYYAN / GCNWRPS / SDRDSSGFQVF gave no signal (0 of 3 replicates). The variant EGDSLAYYYAN / GVNNRPS / SSRDMSGFQVF gave 2.0 µM (3 of 3 replicates). For EGDSLRYYYAN / GVNNRPS / SSRDSSMFKVF, the assay gave 35 µM (2 of 3 replicates).

The variant EGDALRYYYAN / GRNNRPE / SSRDSSGFQVF gave 61 nM (3 of 3 replicates). For EGDSHRYYQAN / GENNRPS / SSRDSSGFQVF, the assay gave 240 nM (3 of 3 replicates). For EGDSLRYYMAN / GINNRPS / SSRDSSGFQVF, the assay gave 260 nM (3 of 3 replicates). The variant EGDSLRIYYAN / GFNNRPS / SSRDYSGFQVF showed 2.4 µM (2 of 3 replicates). The variant EGDSLRYYYAN / GAPNRPS / SSRDSSGFQVD showed 860 nM (3 of 3 replicates).

The variant EGDSERYYYAN / GSNNRPS / SSRDSSGFQVF showed 840 nM (2 of 3 replicates). For WGDSLRYYYAY / GSNNRPS / SSRDSSGFQVF, the assay gave 3.7 µM (2 of 3 replicates). The variant EGDSLRYYDAN / GFNNRPS / SSRDSSGFDVF gave 130 nM (3 of 3 replicates). With EGDSLRYYYAN / GQNNDPS / SSRDSSGKQVF the result was no signal (0 of 3 replicates). The variant EGDSLRYYYAN / GINNRPS / SGLDSSGFQVF showed no signal (0 of 3 replicates).

For EGDSNRYYYAN / GSNNRPS / SSRDSSDFQVF, the assay gave 8.2 µM (1 of 3 replicates). The variant EGDSLRYYYAN / GVNNRPS / RSRDSSGFQQF gave 11 µM (3 of 3 replicates). With EGDSLRLYYAN / GTNNRPS / ISRDSSGFQVF the result was 37 µM (3 of 3 replicates). For EGDSLWYYYDN / GTNNRPS / SSRDSSGFQVF, the assay gave 30 µM (2 of 3 replicates). The variant EGDSYRYYYAN / GNNNRPS / SSRPSSGFQVF showed 27 µM (1 of 3 replicates).

With EGDSLRGYYAN / GRNYRPS / SSRDSSGFQVF the result was 45 nM (3 of 3 replicates). The variant EGDSLEYYYAN / GENNRPS / SSRDSSGFGVF showed 170 nM (3 of 3 replicates). For EGDSLRYYYAN / GWNNRPS / SCRDMSGFQVF, the assay gave 6.0 µM (3 of 3 replicates). With EGDDLRYYYAN / GQNNRPS / SSRDSSGFQGF the result was 670 nM (2 of 3 replicates). The variant EGDSLRYYYAN / GPNNRPS / GSRDSSGAQVF gave 310 nM (3 of 3 replicates).

The variant WGDSLRCYYAN / GFNNRPS / SSRDSSGFQVF showed 61 µM (2 of 3 replicates). The variant EGDSLRYYYAN / GLNNRPS / SSADSSGFQVF gave 600 nM (3 of 3 replicates).

The 4 strongest on average among those seen in every replicate, once more:

| CDR-L1 | CDR-L2 | CDR-L3 | Kd | detected |
|---|---|---|---|---|
| EGDSLRGYYAN | GRNYRPS | SSRDSSGFQVF | 45 nM | 3/3 |
| EGDALRYYYAN | GRNNRPE | SSRDSSGFQVF | 61 nM | 3/3 |
| EGDSLRYYDAN | GFNNRPS | SSRDSSGFDVF | 130 nM | 3/3 |
| EGDSLEYYYAN | GENNRPS | SSRDSSGFGVF | 170 nM | 3/3 |